Source: ChEMBL document CHEMBL1137888, “1,3-Dihydro-2,1,3-benzothiadiazol-2,2-diones and 3,4-dihydro-1H-2,1,3-benzothidiazin-2,2-diones as ligands for the NOP receptor” (2004)

Protein sequences, listed by entry. Tags and fused reporters are not part of them.
UniProt P41143, whole entry: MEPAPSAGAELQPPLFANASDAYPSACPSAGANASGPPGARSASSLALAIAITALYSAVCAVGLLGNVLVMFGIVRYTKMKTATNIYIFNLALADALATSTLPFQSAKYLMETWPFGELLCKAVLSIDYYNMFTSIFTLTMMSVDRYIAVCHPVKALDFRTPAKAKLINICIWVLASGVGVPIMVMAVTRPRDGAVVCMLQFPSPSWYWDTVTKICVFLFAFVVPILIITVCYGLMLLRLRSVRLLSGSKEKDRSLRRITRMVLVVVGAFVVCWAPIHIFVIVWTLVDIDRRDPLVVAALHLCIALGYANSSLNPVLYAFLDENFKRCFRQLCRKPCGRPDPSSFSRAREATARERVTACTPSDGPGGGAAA
UniProt P41145, whole entry: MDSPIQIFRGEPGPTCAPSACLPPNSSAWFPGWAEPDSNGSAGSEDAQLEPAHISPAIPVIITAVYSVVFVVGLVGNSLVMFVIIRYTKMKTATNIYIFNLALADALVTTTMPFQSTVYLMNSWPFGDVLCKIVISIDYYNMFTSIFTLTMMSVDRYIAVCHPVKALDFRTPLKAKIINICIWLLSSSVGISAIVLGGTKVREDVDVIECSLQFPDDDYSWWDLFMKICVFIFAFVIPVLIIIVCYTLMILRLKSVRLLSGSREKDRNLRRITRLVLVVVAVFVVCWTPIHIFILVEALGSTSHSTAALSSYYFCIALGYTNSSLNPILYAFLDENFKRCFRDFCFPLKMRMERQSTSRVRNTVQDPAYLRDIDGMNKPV

How the values were obtained:
[1] = target: Delta-type opioid receptor (Homo sapiens, UniProt P41143); assay: Inhibition of [3H]naltrindole binding to human Opioid receptor delta 1
[2] = target: Kappa-type opioid receptor (Homo sapiens, UniProt P41145); assay: Inhibition of [3H]U-69593 binding to human Opioid receptor kappa 1

CC(C)CCC(C)N1CCC(N2c3ccccc3NS2(=O)=O)CC1 (configuration not stated)
Ki [1]: > 2 µM | Ki [2]: > 2 µM
